For the test, the target named is GST-Bcl-2 (Homo sapiens (Human), UniProt P10415). The test is described as follows: Time Resolved-Fluorescence Resonance Energy Transfer (TR-FRET) Bcl-2 binding assay. As for the experimental part: Determination of the utility of compounds having Formula (I) as binders to and inhibitors of anti-apoptotic Bcl-2 proteins was performed using the Time Resolved-Fluorescence Resonance Energy Transfer (TR-FRET) Assay. Tb-anti-GST antibody was purchased from Invitrogen (Catalog No. PV4216).
Representative compounds were serially diluted in dimethyl sulfoxide (DMSO) starting at 50 μM (2× starting concentration; 10% DMSO) and 10 μL were transferred into a 384-well plate. The samples are then mixed on a shaker for 1 minute and incubated for an additional 3 hours at room temperature. For each assay, the probe/antibody and protein/probe/antibody were included on each assay plate as negative and positive controls, respectively. Fluorescence was measured on the Envision (Perkin Elmer) using a 340/35 nm excitation filter and 520/525 (F-Bak peptide) and 495/510 nm (Tb-labeled anti-Histidine antibody) emission filters.
The samples were then mixed on a shaker for 1 minute and incubated for an additional 3 hours at room temperature. For each assay, the probe/antibody and protein/probe/antibody were included on each assay plate as negative and positive controls, respectively. Fluorescence was measured on the Envision (Perkin Elmer) using a 340/35 nm excitation filter and 520/525 (F-Bak peptide) and 495/510 nm (Tb-labeled anti-Histidine antibody) emission filters.
The inhibition constant (Ki) is the dissociation constant of an enzyme-inhibitor complex or a protein/small molecule complex, wherein the small molecule is inhibiting binding of one protein to another protein. So a large Ki value indicates a low binding affinity and a small Ki value indicates a high binding affinity.
(In general: TR-FRET usually uses a lanthanide donor and a delayed reading to cut background.)

Sequences of proteins named here, by UniProt entry; tags and fusion partners are left off.
UniProt P10415, whole entry: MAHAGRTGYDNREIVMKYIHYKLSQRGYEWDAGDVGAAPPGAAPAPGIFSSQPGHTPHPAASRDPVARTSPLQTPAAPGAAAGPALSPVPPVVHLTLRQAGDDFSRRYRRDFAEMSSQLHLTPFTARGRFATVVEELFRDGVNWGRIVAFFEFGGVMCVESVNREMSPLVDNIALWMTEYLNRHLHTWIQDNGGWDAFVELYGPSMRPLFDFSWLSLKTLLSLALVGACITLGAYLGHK

Setting [1] is: GST-Bcl-2 1 nM, F-Bak peptide probe 100 nM, Tb-anti-GST antibody 1 nM, Ki by Wang's equation.

The structures appear in SMILES notation. Like-named read-outs stand apart in the source and are kept apart here.

Broadly, the Ki is a measure of affinity in units of concentration, obtained from inhibition or displacement. Regarding `CC(C1=C(c2ccc(Cl)cc2)CC(C)(C)CC1)N1CCN(c2ccc(C(=O)NS(=O)(=O)c3ccc(NCC4CCOCC4)c([N+](=O)[O-])c3)c(Oc3cc4cc[nH]c4cc3F)c2)CC1` (stereo not shown) [Example 256, 4-(4-{1-[2-(4-chlorophenyl)-4,4-dimethylcyclohex-1-en-1-yl]ethyl}piperazin-1-yl)-2-[(6-fluoro-1H-indol-5-yl)oxy]-N-({3-nitro-4-[(tetrahydro-2H-pyran-4-ylmethyl)amino]phenyl}sulfonyl)benzamide], under setting [1], the affinity, expressed as Ki, was 0.105 nM.
With `COCCNc1ccc(S(=O)(=O)NC(=O)c2ccc(N3CCN(CC4=C(c5ccc(Cl)cc5)CC(C)(C)CC4)CC3)cc2Oc2cc(F)cc3[nH]ccc23)cc1[N+](=O)[O-]` [Example 269, 4-(4-{[2-(4-chlorophenyl)-4,4-dimethylcyclohex-1-en-1-yl]methyl}piperazin-1-yl)-2-[(6-fluoro-1H-indol-4-yl)oxy]-N-({4-[(2-methoxyethyl)amino]-3-nitrophenyl}sulfonyl)benzamide], the Ki under setting [1] amounted to 0.469 nM.
On to `CN1CCN(Nc2ccc(S(=O)(=O)NC(=O)c3ccc(N4CCN(CC5=C(c6ccc(Cl)cc6)CC(C)(C)CC5)CC4)cc3Oc3cccc4[nH]cc(Cl)c34)cc2[N+](=O)[O-])CC1` [Example 286, 2-[(3-chloro-1H-indol-4-yl)oxy]-4-(4-{[2-(4-chlorophenyl)-4,4-dimethylcyclohex-1-en-1-yl]methyl}piperazin-1-yl)-N-({4-[(4-methylpiperazin-1-yl)amino]-3-nitrophenyl}sulfonyl)benzamide], for which the Ki under setting [1] is 3.18 nM.
Take `CC1(C)CCC(CN2CCN(c3ccc(C(=O)NS(=O)(=O)c4ccc(NC5CCN(S(C)(=O)=O)CC5)c([N+](=O)[O-])c4)c(Oc4cc5cc[nH]c5cc4F)c3)CC2)=C(c2ccc(Cl)cc2)C1` [Example 319, 4-(4-{[2-(4-chlorophenyl)-4,4-dimethylcyclohex-1-en-1-yl]methyl}piperazin-1-yl)-2-[(6-fluoro-1H-indol-5-yl)oxy]-N-[(4-{[1-(methylsulfonyl)piperidin-4-yl]amino}-3-nitrophenyl)sulfonyl]benzamide]: the Ki under setting [1] is 0.198 nM.
Turning to `CC1(C)CCC(CN2CCN(c3ccc(C(=O)NS(=O)(=O)c4ccc(OCC5COCCO5)c([N+](=O)[O-])c4)c(Oc4cnc(N)c(Cl)c4)c3)CC2)=C(c2ccc(Cl)cc2)C1` (stereo not shown) [Example 344, 2-[(6-amino-5-chloropyridin-3-yl)oxy]-4-(4-{[2-(4-chlorophenyl)-4,4-dimethylcyclohex-1-en-1-yl]methyl}piperazin-1-yl)-N-{[4-(1,4-dioxan-2-ylmethoxy)-3-nitrophenyl]sulfonyl}benzamide], the Ki under setting [1] was 0.042 nM.
The compound `CO[C@H]1CC[C@H](CNc2ccc(S(=O)(=O)NC(=O)c3ccc(N4CCN(CC5=C(c6ccc(Cl)cc6)CC(C)(C)CC5)CC4)cc3Oc3cnc(N)c(Cl)c3)cc2[N+](=O)[O-])CC1` [Example 345, Trans-2-[(6-amino-5-chloropyridin-3-yl)oxy]-4-(4-{[2-(4-chlorophenyl)-4,4-dimethylcyclohex-1-en-1-yl]methyl}piperazin-1-yl)-N-[(4-{[(4-methoxycyclohexyl)methyl]amino}-3-nitrophenyl)sulfonyl]benzamide] displayed a Ki of 0.005 nM.
In the case of `CN(C)CCOc1cccc(-c2ccc(Cl)cc2)c1CN1CCN(c2ccc(C(=O)NS(=O)(=O)c3ccc(NCC4CCOCC4)c([N+](=O)[O-])c3)c(Oc3cnc(N)c(Cl)c3)c2)CC1` [Example 398, 2-[(6-amino-5-chloropyridin-3-yl)oxy]-4-[4-({4′-chloro-3-[2-(dimethylamino)ethoxy]-1,1′-biphenyl-2-yl}methyl)piperazin-1-yl]-N-({3-nitro-4-[(tetrahydro-2H-pyran-4-ylmethyl)amino]phenyl}sulfonyl)benzamide], the Ki under setting [1] was 0.175 nM.

The record behind these values is US8952157B2, “Apoptosis-inducing agents for the treatment of cancer and immune and autoimmune diseases” (AbbVie Inc., priority 2008, dated 2015).
